Experimental data reported in patent publication US6664231B1, “Anti-fungal peptides” (priority 1993, dated 2003).

Tests used:
[1] = system: C. albicans (SLU-1 and other strains); assay type: cell-based, Candida albicans
Description: In additional experiments, a fluorescence-activated cell sorter (FACS) based assay was developed to test the fungicidal activity of the peptides. […] Difco) agar. Several colonies were picked from the agar plate and inoculated into 5 mL of Sabouraud's Dextrose media in a sterile 10 mL polypropylene tube. The fungal cultures were incubated for about 18 hours at 30° C. […] The culture were centrifuged at 3000 rpm for 5 minutes (Sorvall RT 6000B). After centrifugation, the supernatant was decanted leaving the fungal pellets in the centrifuge tubes. The pellets were resuspended in 15 mL of SDB. Both suspensions were combined into one tube and mixed to generate a stock culture. […] After determining the concentration of the stock, appropriate dilutions were made with Sabouraud's Dextrose media to obtain 100 mL of 1×10^6 cell/mL. […] After the 1 hour incubation, all the tubes were centrifuged at 3000 rpm for 5 minutes. […] Louis, Mo.) in Dulbecco's PBS (DPBS, GIBCO, Grand Island, N.Y.) except the autofluorescence control, which was resuspended in DPBS alone. The tubes were mixed and incubated in the dark at room temperature for at least 20 minutes. […] The settings were adjusted appropriately to the following approximate parameters: Cells were analyzed (10,000 cells/tube) and their respective fluorescence determined. […] The population of dead (i.e., propidium iodide stained) fungal cells was determined by a fluorescence threshold between the negative control and positive control.

[2] = system: Cryptococcus neoformans ATCC 13690; assay type: cell-based
Description: (§1) The anti-fungal activity of Domain III derived peptides was evaluated against a variety of fungal species, including species of Candida. Cryptococcus, Fusarium, Trichophyton, and Aspergillus, by an additional assay protocol utilizing Alamar Blue. Alamar Blue is an indicator dye formulated to measure quantitatively the proliferation of a variety of human or animal cells, bacteria, or fungi. It consists of an oxidation-reduction (REDOX) indicator that yields a colorimetric change in response to metabolic activity. For these experiments, species of Candida and Cryptococcus were grown in Sabouraud's dextrose broth (SDB) overnight. Strains of filamentous fungi (Aspergilius, Fusanum, Trichophyton) were obtained by irrigation of a confluent culture from a petri dish. Cells were washed and adjusted to a concentration of 5.0×10^3/mL in fresh SDB. […] Controls included amphotericin B, fluconazole, ketoconazole and griseofulvin. Antifungal drugs were also diluted in the same manner. Assays were performed in 96-well microuiter plates. […] The wells to be plated were determined by OD590 readings. The lowest concentration of peptide which maintained the blue color (or OD reading) of the blank was chosen along with the next two higher concentrations. Plates were allowed to grow for 18-48 hours depending on the rate of growth of each fungus. Minimal fungicidal activity (MFC) was determined as a 99.9% killing of the starting inoculum.

[3] = system: Aspergillus ATCC 13073; assay type: cell-based
Description: as §1

[4] = system: Aspergillus niger ATCC 16404; assay type: cell-based
Description: as §1

[5] = Serum stability, anti-fungal activity after serum incubation by radial diffusion bioassay; assay type: in vitro ADME, rat or human serum; conditions: Activity in Serum t ½ (hr.)
Outline: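 Peptide at 1 mg/mL mixed with an equal volume of rat or human serum and held at 37° C. Samples taken at 0, 1, 2 and 4 h, extracted on C-18 solid phase, then analysed by HPLC, N-terminal sequencing and ESI/MS. Recovered peptides tested against C. albicans SLU-1 by radial diffusion.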

[6] = system: C. albicans (CA-1, Strain SLU-1); assay: Radial diffusion assay; assay type: cell-based, Candida albicans; conditions: pmoles of peptide added to well to achieve a 30 mm^2 zone, PROBIT analysis; crude or purified (P′) peptide
Outline: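 Yeast at 1×10^6 CFU/mL in agarose underlayer (3% Sabouraud, 10 mM sodium phosphate pH 7.4); 2-fold peptide dilutions in D-PBS from ~1 mg/mL loaded into wells, 3 h at 37° C, then nutrient overlayer overnight. Value: pmol/well giving 30 mm^2 net clear zone, by PROBIT regression.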

## CC[C@@H](C)[C@@H](NC(=O)[C@@H](CC(C)C)NC(=O)[C@@H](Cc1c[nH]c2ccccc12)NC(=O)[C@@H](CCCCN)NC(C)=O)C(=O)N[C@H](CCC(N)=O)C(=O)N[C@H](CC(C)C)C(=O)N[C@H](Cc1ccccc1)C(=O)N[C@H](Cc1c[nH]cn1)C(=O)N[C@H](CCCCN)C(=O)N[C@H](CCCCN)C(N)=O [XMP.366]
[1]
  Activity on various strains of C. albicans, IC50, 10231: 4.53 µg/mL
  Activity on various strains of C. albicans, IC50, 14053: 1.35 µg/mL
  Activity on various strains of C. albicans, IC50, 26555: 0.69 µg/mL
  Activity on various strains of C. albicans, IC50, 90028: 2.29 µg/mL
  Activity on various strains of C. albicans, IC50, SLU#1: 0.89 µg/mL
[2]
  Minimum Fungicidal Concentration, Cryptococcus neoformans ATCC 13690: 1.25 µg/mL
[3]
  Minimum Fungicidal Concentration, Aspergillus ATCC 13073: 50.00 µg/mL
[4]
  Minimum Fungicidal Concentration, Aspergillus niger ATCC 16404: >10.00 µg/mL
[5]
  half-life at 0.5 mg/mL: 702 min
[6]
  C. albicans pmol/30 mm^2 zone: 725 pmol/30 mm^2 zone

## CC[C@H](C)[C@H](NC(=O)[C@H](CC(C)C)NC(=O)[C@H](Cc1c[nH]c2ccccc12)NC(=O)[C@H](CCCCN)NC(C)=O)C(=O)N[C@@H](CCC(N)=O)C(=O)N[C@@H](CC(C)C)C(=O)N[C@@H](Cc1ccccc1)C(=O)N[C@@H](Cc1c[nH]cn1)C(=O)N[C@@H](CCCCN)C(=O)N[C@@H](CCCCN)C(N)=O [XMP.373]
[1]
  Activity on various strains of C. albicans, IC50, 10231: 2.92 µg/mL
  Activity on various strains of C. albicans, IC50, 14053: 1.64 µg/mL
  Activity on various strains of C. albicans, IC50, 26555: 1.46 µg/mL
  Activity on various strains of C. albicans, IC50, 90028: 1.86 µg/mL
  Activity on various strains of C. albicans, IC50, SLU#1: 1.13 µg/mL
[2]
  Minimum Fungicidal Concentration, Cryptococcus neoformans ATCC 13690: 0.63 µg/mL
[3]
  Minimum Fungicidal Concentration, Aspergillus ATCC 13073: >50.00 µg/mL
[4]
  Minimum Fungicidal Concentration, Aspergillus niger ATCC 16404: 2.50 µg/mL
[5]
  half-life at 0.5 mg/mL: 108 min
[6]
  C. albicans pmol/30 mm^2 zone: 298 pmol/30 mm^2 zone

## CC[C@H](C)[C@H](NC(=O)[C@H](CC(C)C)NC(=O)[C@H](Cc1c[nH]c2ccccc12)NC(=O)CNC(=O)[C@@H](N)CCCCN)C(=O)N[C@@H](CCC(N)=O)C(=O)N[C@@H](CC(C)C)C(=O)N[C@@H](Cc1ccccc1)C(=O)N[C@@H](Cc1c[nH]cn1)C(=O)N[C@@H](CCCCN)C(=O)N[C@@H](CCCCN)C(N)=O [XMP.389]
[1]
  Activity on various strains of C. albicans, IC50, 10231: 3.12 µg/mL
  Activity on various strains of C. albicans, IC50, 14053: 0.95 µg/mL
  Activity on various strains of C. albicans, IC50, 26555: 0.89 µg/mL
  Activity on various strains of C. albicans, IC50, 90028: 2.79 µg/mL
  Activity on various strains of C. albicans, IC50, SLU#1: 0.95 µg/mL
[2]
  Minimum Fungicidal Concentration, Cryptococcus neoformans ATCC 13690: 0.63 µg/mL
[3]
  Minimum Fungicidal Concentration, Aspergillus ATCC 13073: 25.00 µg/mL
[4]
  Minimum Fungicidal Concentration, Aspergillus niger ATCC 16404: 1.25 µg/mL
[5]
  half-life at 0.5 mg/mL: 96 min
[6]
  C. albicans pmol/30 mm^2 zone: 206 pmol/30 mm^2 zone

## CC[C@H](C)[C@H](NC(=O)[C@H](CC(C)C)NC(=O)[C@H](Cc1c[nH]c2ccccc12)NC(=O)CNC(=O)[C@@H](NC(=O)[C@@H](N)CCCCN)C(C)C)C(=O)N[C@@H](CCC(N)=O)C(=O)N[C@@H](CC(C)C)C(=O)N[C@@H](Cc1ccccc1)C(=O)N[C@@H](Cc1c[nH]cn1)C(=O)N[C@@H](CCCCN)C(=O)N[C@@H](CCCCN)C(N)=O [XMP.391]
[1]
  Activity on various strains of C. albicans, IC50, 10231: 2.06 µg/mL
  Activity on various strains of C. albicans, IC50, 14053: 1.04 µg/mL
  Activity on various strains of C. albicans, IC50, 26555: 0.79 µg/mL
  Activity on various strains of C. albicans, IC50, 90028: 1.29 µg/mL
  Activity on various strains of C. albicans, IC50, SLU#1: 0.64 µg/mL
[2]
  Minimum Fungicidal Concentration, Cryptococcus neoformans ATCC 13690: 0.31 µg/mL
[3]
  Minimum Fungicidal Concentration, Aspergillus ATCC 13073: 12.50 µg/mL
[4]
  Minimum Fungicidal Concentration, Aspergillus niger ATCC 16404: 1.25 µg/mL
[5]
  half-life at 0.5 mg/mL: 282 min
[6]
  C. albicans pmol/30 mm^2 zone: 68 pmol/30 mm^2 zone
